In publication PMC7017353, “Delineating the Molecular Basis of the Calmodulin–bMunc13-2 Interaction by Cross-Linking/Mass Spectrometry—Evidence for a Novel CaM Binding Motif in bMunc13-2” (Cells, 2020):

Target: T1, calmodulin (CaM) (Homo sapiens, UniProt P0DP23)
T1 construct: photo-Met label (partial metabolic replacement of Met by the diazirine analogue photo-methionine); made in house; host or cells: E. coli
Assay: Surface plasmon resonance (SPR), immobilised biotinylated CaM
Format: binding
Details: biotinylated photo-Met-labeled CaM on streptavidin/PEG-biotin chip, peptide 0.1, 0.5 and 1 µM, 20 mM HEPES, 230 mM NaCl, 0.5 mM TCEP pH 7.2, TraceDrawer

703KLSLEQVCAETIYLNKCINNDKNVLREKRLRQKKLLQELV742 [Segment F723D, segment-C variant with F723 exchanged to aspartic acid]
KD: could not be derived
